The entries are a selection whose mix differs from that of the whole data set. Inconclusive results are not listed. Active and inactive are the calls of the source. Calls come from the whole dose curve; as a rule, active = well fitted cell-killing curve with a large enough effect; inconclusive = small, poorly fitted or top-dose-only effect; inactive = no such curve, though single readings can be large or run the other way.
% is set by controls: 0 for no effect and ±100 for the full control effect.

The nature of this assay: qHTS Screen for Compounds that Selectively Target Cancer Cells with p53 Mutations: Cytotoxicity of p53ts Cells at the Nonpermissive Temperature. Note: nearly all actives have a fitted effect of over 55% in size. The conditions noted are these: H1299-p53A138V viability at 39C, ATP luminescence, 24 h; at 46.1 µM (top of the series).
As for `O=[N+]([O-])C(Cl)(Cl)Cl`, the activity change, negative = cell killing is inactive: 8.04%.

The record behind these values is PubChem BioAssay AID902 (National Center for Advancing Translational Sciences (NCATS), 2007).
